In PubChem BioAssay AID449 (The Scripps Research Institute Molecular Screening Center, 2006):
The list shows a part of the results, in another mix than the full data. Calls of active or inactive are those of the source.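 The calls were made as follows: active = activation above a cutoff set at the mean activation of all tested compounds plus 3 SD (cut at about 54% in these data); inactive = the rest, inconclusive results apart.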

Amino acid sequences for entries named in this document (tags omitted).
UniProt P21453, whole entry, looked up: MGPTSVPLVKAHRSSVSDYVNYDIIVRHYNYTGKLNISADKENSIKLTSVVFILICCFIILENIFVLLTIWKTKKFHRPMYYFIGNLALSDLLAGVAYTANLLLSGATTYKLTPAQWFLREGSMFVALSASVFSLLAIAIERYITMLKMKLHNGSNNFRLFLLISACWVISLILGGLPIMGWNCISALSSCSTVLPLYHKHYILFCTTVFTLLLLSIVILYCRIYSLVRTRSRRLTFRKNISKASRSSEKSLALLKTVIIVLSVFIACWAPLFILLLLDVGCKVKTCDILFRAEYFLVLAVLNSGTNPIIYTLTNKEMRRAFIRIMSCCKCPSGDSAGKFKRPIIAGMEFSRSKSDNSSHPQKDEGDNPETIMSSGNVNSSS

The molecules below were run against Sphingosine 1-phosphate receptor 1 (Homo sapiens) (UniProt P21453) (assay: S1P1 agonists and agonism potentiators, primary screen, cell-based, primary and confirmation screens, CRE-bla reporter (AID 449;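 also: forskolin at 4 µM as EC80 and the EC20 agonist is SEW2871; 100% = SEW2871 at its EC100 plus forskolin at EC80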)). Details: S1P1 CRE-bla cells, forskolin, beta-lactamase FRET, potentiator mode; at 9.5 µM; hits give high values; 100% = saturating reference agonist, 0% = basal; S1P1 agonist co-added at EC20, 2 nM.

| SMILES | activation |
| --- | --- |
| COP1(=S)c2c(C)nn(CCC#N)c2N=C(c2ccc(F)cc2)N1C (centres undefined) | inactive: 4% |
| O=C(COc1ccccc1)OC1CN2CCC1CC2 (centres undefined) | inactive: 12.7% |
| O=C(OC1CN2CCC1CC2)C12CC3CC(CC(C3)C1)C2 (centres undefined) | inactive: -10.5% |
| CCOP1(=S)c2c(C)nn(CCC#N)c2N=C(c2ccc(F)cc2)N1C (centres undefined) | inactive: -1.6% |
| O=P(Nc1nccs1)(c1ccccc1)c1nc2ccccc2s1 (centres undefined) | inactive: -36.5% |
| CCOP1(=S)c2c(C)nn(CCC#N)c2N=C(c2ccccc2F)N1C (centres undefined) | inactive: 5% |
| Cc1cccc(OCC(=O)OC2CN3CCC2CC3)c1 (centres undefined) | inactive: -6.3% |
| O=P1(Nc2ccccn2)COc2ccccc2OC1 | inactive: -3.8% |
| Clc1n[nH]nc1-c1nn[nH][15n]1 | inactive: 2.1% |
| O=P1(Nc2ncccn2)COc2ccccc2OC1 | inactive: 8.9% |
| O=P1(Nc2ccc(Br)cn2)COc2ccccc2OC1 | inactive: -8.6% |
| Cc1ccc(OCC(=O)OC2CN3CCC2CC3)cc1 (centres undefined) | inactive: -15% |
| Cc1nn(-c2ccccc2)c2c1P(=O)(N1CCOCC1)N(C)C(c1ccccc1)=N2 (centres undefined) | inactive: -2.6% |
| O=C(OC1CN2CCC1CC2)c1cccc(Cl)c1 (centres undefined) | inactive: -0.2% |
| O=P(Nc1nccs1)(c1ccccc1)c1ccccc1 | inactive: -12.2% |
| c1nnnn1CCn1cnnn1 | inactive: -15.4% |
| O=P1(Nc2nc3ccc(Cl)cc3s2)COc2ccccc2O1 (centres undefined) | inactive: 16.5% |
| Cc1c2non([O-])c-2c(C)[n+](=O)[n+]1[O-] | inactive: -11% |
| CCc1nc2c(n1)c1c(non1O)c1c2no[n+]1[O-] | inactive: 4.8% |
